Source: patent US5731334A, “Method for treating cancer using taxoid onium salt prodrugs” (priority 1995, dated 1998)

Key:
[1] = 1-2 hour i.v. infusion every 2 or 3 weeks; cited from earlier work
[2] = Plasma stability and prodrug reversion (ethyl acetate extraction, HPLC); details: human plasma, 37° C.; Table II

Question: With `CC(=O)O[C@@]12CO[C@@H]1C[C@H](O)[C@@]1(C)C(=O)[C@H](O)C3=C(C)[C@@H](OC(=O)[C@H](O)[C@@H](NC(=O)OC(C)(C)C)c4ccccc4)C[C@@](O)([C@@H](OC(=O)c4ccccc4)[C@H]21)C3(C)C` [Compound 5, N-debenzoyl-N-tert-butoxycarbonyl-10-deacetyl Taxol, reference compound] as the molecule, how does the limiting toxicity [1] read?
Answer: Its limiting toxicity is “dose-dependent, reversible neutorpenia”.

Question: What about the “Plasma Stability t1/2” value [2] of the same molecule?
Answer: The value was “stable”.
